Source: patent US8927533B2, “Thio derivatives bearing lactams as potent HDAC inhibitors and their uses as medicaments” (SIGMA-TAU Industrie Farmaceutiche Riunite S.p.A., priority 2011, dated 2015)

Target: T1, HDAC10 (Homo sapiens, UniProt Q969S8)
T1 sequence (Q969S8 1-669): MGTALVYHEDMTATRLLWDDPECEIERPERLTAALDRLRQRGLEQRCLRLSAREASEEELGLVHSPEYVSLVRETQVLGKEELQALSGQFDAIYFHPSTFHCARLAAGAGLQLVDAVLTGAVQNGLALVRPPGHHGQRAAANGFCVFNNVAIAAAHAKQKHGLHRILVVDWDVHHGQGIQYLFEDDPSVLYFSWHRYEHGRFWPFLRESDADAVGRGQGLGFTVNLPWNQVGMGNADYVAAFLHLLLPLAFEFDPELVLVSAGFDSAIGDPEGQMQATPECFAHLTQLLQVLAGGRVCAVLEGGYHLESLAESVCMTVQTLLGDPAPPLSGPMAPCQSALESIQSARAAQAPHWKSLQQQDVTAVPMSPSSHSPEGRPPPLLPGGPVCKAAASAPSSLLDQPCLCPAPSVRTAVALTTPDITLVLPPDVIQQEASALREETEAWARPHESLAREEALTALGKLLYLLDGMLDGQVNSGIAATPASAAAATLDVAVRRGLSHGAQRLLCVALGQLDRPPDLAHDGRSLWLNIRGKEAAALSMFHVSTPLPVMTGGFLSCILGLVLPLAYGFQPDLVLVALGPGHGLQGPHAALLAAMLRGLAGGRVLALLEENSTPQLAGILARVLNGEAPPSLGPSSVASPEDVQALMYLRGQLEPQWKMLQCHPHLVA
Experiment: HDAC enzymatic assay, HDAC10
Format: biochemical
Protocol: Each compound was dissolved in DMSO, and progressively diluted solutions were used for testing. […] Upon its deacetylation, the fluorophore was released given rise to fluorescence emission which was detected by a fluorimeter, and the IC50 values of the compounds were determined by analyzing dose-response inhibition curves.

Structure (SMILES): O=C(CCCCCCC(=O)Nc1ccccc1)NO [SAHA, suberoylanilide hydroxamic acid, reference compound]
- IC50: 100 to 500 nM
